Apparent affinities of Ab-14 variants for a coronavirus HR2 peptide

Values reported by Li et al. 2023, doi:10.1038/s41467-023-39022-2 (FLAb copy).

All variants were tested on one target, the spike HR2 peptide PDVDLGDISGINAS (SARS-CoV-2).

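Phage display of a naive human antibody library on the peptide gave the parent. Designed CDR sequences, proposed from the first random library and measured here. Group labels follow the data file (Ctrl: baseline library sampled from a position-specific scoring matrix, with some repeated check sequences; En: ensemble of fine-tuned language models; GP: Gaussian process model; HC: hill climbing; Gen: genetic algorithm; Gibbs: Gibbs sampling; a sequence that several methods proposed may carry one label only). Affinity was read by AlphaSeq, a pooled yeast mating assay with surface-displayed partners. Mating (16 h, 30 °C) was followed by selection of diploids and sequencing of their barcodes. Each replicate has its own calibration line, from reference interactions of the BCL2 family. Mating was done six times.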

Parent scFv Ab-14: VH joined to VL by three GGGGS repeats. Changes lie in the light chain CDRs alone.
VH: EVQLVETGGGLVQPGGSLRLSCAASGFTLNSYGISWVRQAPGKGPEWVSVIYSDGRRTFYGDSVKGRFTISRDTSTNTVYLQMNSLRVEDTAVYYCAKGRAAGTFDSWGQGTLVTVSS
VL: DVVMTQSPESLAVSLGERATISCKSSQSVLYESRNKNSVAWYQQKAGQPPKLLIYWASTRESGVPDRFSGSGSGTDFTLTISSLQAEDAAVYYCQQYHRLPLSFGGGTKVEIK

Each variant's VL is given in full. The read-out is the apparent dissociation constant on a log10 scale (nM): the lower, the stronger. A mean of the replicates is given; it leaves out those without a signal. "nd" means that the variant was in the library but no mating with the target was seen in that replicate; the authors take this as a sign of poor binding, and no number exists. Background: pairings of all light chain designs with three empty control strains gave a value in 4% of cases (median 2.64, 5th percentile 1.59). Values in that range, when seen in few replicates, are hard to tell from nonspecific mating. Also given: how often the same scFv was detected with the empty control strains. Of ten entries with the parent sequence, four were seen in most replicates (averages 0.34 to 2.37), three in one and three in none, so single entries are noisy. The authors' rule: three or more of the six replicates give a measured affinity, fewer mean a poor binder. The range of this assay differs from that of the first round, and the authors advise against merging the two.

0.70, 0.37, 0.80, 0.44, 0.55, 0.63 (mean 0.58; controls 1 of 18) for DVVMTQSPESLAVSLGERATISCTLGDVTRQESNKKSNIAWYQQKAGQPPKLLIYDMSNRAAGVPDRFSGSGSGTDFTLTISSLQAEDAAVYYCQQYHRLPISFGGGTKVEIK [En_HC].
-0.33, -0.49, -0.31, -0.75, -0.04, -0.14 (mean -0.34; controls 0 of 18) for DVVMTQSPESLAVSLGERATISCKVMQSVLYESRNVNNVAWYQQKAGQPPKLLIYNGSTRELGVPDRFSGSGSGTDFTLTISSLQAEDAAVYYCQQYHRLPLSFGGGTKVEIK [GP_Gibbs].
nd, nd, nd, nd, nd, nd (controls 0 of 18) for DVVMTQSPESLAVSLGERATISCKSEQSLLYESRNKNSVAWYQQKAGQPPKLLIYWASTRESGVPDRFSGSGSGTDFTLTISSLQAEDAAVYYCQQYHRLPASFGGGTKVEIK [Ctrl].
0.39, 0.37, 0.18, 0.37, 0.34, 0.45 (mean 0.35; controls 1 of 18) for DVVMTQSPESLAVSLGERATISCKSGQGDLYESRNKNSVAWYQQKAGQPPKLLIYGASTRESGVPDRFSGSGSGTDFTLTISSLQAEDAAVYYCQQYHRLPLHFGGGTKVEIK [GP_HC].
0.81, 0.72, 1.77, 0.76, 0.87, 1.27 (mean 1.03; controls 0 of 18) for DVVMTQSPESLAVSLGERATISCKLSQSVLYESRNSNSVAWYQQKAGQPPKLLIYGASTRESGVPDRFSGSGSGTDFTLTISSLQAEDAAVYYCQQYHRLPLSFGGGTKVEIK [GP_Gen].
0.76, 0.80, 0.28, 0.54, 0.70, 0.91 (mean 0.66; controls 0 of 18) for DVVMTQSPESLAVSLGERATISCKFMYSGEYQMHEQNNIAWYQQKAGQPPKLLIYQGNIKTVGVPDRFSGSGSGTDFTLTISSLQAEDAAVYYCQQYFRLPIYFGGGTKVEIK [En_Gibbs].
0.40, -0.12, 0.40, -0.20, 0.00, 0.20 (mean 0.11; controls 0 of 18) for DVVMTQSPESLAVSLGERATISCTISQVMNTLTRNGNNVAWYQQKAGQPPKLLIYDLQNREDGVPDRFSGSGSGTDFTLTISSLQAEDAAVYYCQQYFRLPLSFGGGTKVEIK [En_Gen].
0.33, 0.14, 0.01, -0.10, 0.11, 0.10 (mean 0.10; controls 2 of 18) for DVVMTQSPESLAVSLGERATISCKLSQSVLYESRMKNSVAWYQQKAGQPPKLLIYNASQRLSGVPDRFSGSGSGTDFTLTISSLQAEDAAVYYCQQYHRLPLSFGGGTKVEIK [GP_Gen].
0.68, 0.37, 0.42, 0.21, 0.24, 0.27 (mean 0.37; controls 1 of 18) for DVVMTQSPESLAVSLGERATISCHMNHEYLDYSNYENNIAWYQQKAGQPPKLLIYHGSQRLYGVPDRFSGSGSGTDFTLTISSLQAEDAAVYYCQQYSHLPLSFGGGTKVEIK [En_Gibbs].
nd, 3.30, nd, nd, nd, nd (controls 2 of 18) for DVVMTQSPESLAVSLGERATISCKLGGESYNSTYEMDAVAWYQQKAGQPPKLLIYDQNTTYEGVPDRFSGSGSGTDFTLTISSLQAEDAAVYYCQHYSRLPLTFGGGTKVEIK [En_Gibbs].
0.27, 0.13, 0.01, -0.05, 0.12, 0.32 (mean 0.13; controls 1 of 18) for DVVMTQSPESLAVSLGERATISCKLSFTTEMEHVNRNSVAWYQQKAGQPPKLLIYELVTRMQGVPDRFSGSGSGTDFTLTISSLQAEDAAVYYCQQYNRLPLSFGGGTKVEIK [En_Gen].
0.12, -0.04, -0.13, -0.12, -0.01, 0.13 (mean -0.01; controls 1 of 18) for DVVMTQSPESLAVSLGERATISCKVSMSFLYESRNKNSVAWYQQKAGQPPKLLIYGASTRESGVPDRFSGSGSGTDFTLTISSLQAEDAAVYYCQQYHRLPLSFGGGTKVEIK [GP_HC].
-0.06, -0.12, 0.13, -0.04, -0.12, 0.12 (mean -0.02; controls 0 of 18) for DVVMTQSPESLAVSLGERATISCKFSQSQLYESRNKNSVAWYQQKAGQPPKLLIYGASTRESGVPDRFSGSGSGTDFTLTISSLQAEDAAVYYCQQYHRLTLSFGGGTKVEIK [GP_HC].
0.97, 0.67, 0.29, 0.92, 0.55, 1.19 (mean 0.76; controls 1 of 18) for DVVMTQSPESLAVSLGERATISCKLMQSELYESRNKNSVAWYQQKAGQPPKLLIYNASKRESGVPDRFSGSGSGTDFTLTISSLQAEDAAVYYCQQYHRLPLSFGGGTKVEIK [GP_Gen].
0.92, 0.79, 0.92, 0.63, 0.76, 0.82 (mean 0.81; controls 1 of 18) for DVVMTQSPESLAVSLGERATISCTISQLYNMGQFAINSVAWYQQKAGQPPKLLIYQASQRNEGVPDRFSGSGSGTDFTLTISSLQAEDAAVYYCQQYDRLPLMFGGGTKVEIK [En_Gen].
nd, nd, nd, nd, nd, nd (controls 0 of 18) for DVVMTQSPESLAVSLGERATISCKSSQSVLYESRNKVSVAWYQQKAGQPPKLLIYWASTRESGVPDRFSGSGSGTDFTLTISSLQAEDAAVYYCQQYHRLPLSFGGGTKVEIK [Ctrl].
-0.01, 0.35, 0.28, -0.01, 0.26, 0.45 (mean 0.22; controls 0 of 18) for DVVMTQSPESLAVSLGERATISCKLSPSEQYEDRNCNAVAWYQQKAGQPPKLLIYQASQRESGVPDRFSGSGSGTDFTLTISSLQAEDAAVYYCQQYHRLPLSFGGGTKVEIK [GP_Gibbs].
-0.05, 0.15, -0.17, -0.14, 0.16, 0.21 (mean 0.03; controls 1 of 18) for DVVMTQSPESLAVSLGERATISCQIYQAMHTLMQQKNNVAWYQQKAGQPPKLLIYDVTNRQKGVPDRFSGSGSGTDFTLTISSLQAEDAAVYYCQQYNRLPLSFGGGTKVEIK [En_Gen].

The 2 strongest on average among those seen in every replicate, once more:

| VL | group | log10 Kd (nM) by replicate | mean, log10 nM | empty controls |
|---|---|---|---|---|
| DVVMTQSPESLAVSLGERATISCKVMQSVLYESRNVNNVAWYQQKAGQPPKLLIYNGSTRELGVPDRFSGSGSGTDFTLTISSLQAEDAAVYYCQQYHRLPLSFGGGTKVEIK | GP_Gibbs | -0.33, -0.49, -0.31, -0.75, -0.04, -0.14 | -0.34 | 0 of 18 |
| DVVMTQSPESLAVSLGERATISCKFSQSQLYESRNKNSVAWYQQKAGQPPKLLIYGASTRESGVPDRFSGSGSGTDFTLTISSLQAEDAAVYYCQQYHRLTLSFGGGTKVEIK | GP_HC | -0.06, -0.12, 0.13, -0.04, -0.12, 0.12 | -0.02 | 0 of 18 |